Laboratory results published in patent US12581252B2, “Substituted pyrrolo[3,4-b]pyridines as PI3K-α inhibitors” (Relay Therapeutics, Inc., priority 2020, dated 2026).

Sequences of proteins named here, by UniProt entry; tags and fusion partners are left off.
UniProt P42336, whole entry H1047R: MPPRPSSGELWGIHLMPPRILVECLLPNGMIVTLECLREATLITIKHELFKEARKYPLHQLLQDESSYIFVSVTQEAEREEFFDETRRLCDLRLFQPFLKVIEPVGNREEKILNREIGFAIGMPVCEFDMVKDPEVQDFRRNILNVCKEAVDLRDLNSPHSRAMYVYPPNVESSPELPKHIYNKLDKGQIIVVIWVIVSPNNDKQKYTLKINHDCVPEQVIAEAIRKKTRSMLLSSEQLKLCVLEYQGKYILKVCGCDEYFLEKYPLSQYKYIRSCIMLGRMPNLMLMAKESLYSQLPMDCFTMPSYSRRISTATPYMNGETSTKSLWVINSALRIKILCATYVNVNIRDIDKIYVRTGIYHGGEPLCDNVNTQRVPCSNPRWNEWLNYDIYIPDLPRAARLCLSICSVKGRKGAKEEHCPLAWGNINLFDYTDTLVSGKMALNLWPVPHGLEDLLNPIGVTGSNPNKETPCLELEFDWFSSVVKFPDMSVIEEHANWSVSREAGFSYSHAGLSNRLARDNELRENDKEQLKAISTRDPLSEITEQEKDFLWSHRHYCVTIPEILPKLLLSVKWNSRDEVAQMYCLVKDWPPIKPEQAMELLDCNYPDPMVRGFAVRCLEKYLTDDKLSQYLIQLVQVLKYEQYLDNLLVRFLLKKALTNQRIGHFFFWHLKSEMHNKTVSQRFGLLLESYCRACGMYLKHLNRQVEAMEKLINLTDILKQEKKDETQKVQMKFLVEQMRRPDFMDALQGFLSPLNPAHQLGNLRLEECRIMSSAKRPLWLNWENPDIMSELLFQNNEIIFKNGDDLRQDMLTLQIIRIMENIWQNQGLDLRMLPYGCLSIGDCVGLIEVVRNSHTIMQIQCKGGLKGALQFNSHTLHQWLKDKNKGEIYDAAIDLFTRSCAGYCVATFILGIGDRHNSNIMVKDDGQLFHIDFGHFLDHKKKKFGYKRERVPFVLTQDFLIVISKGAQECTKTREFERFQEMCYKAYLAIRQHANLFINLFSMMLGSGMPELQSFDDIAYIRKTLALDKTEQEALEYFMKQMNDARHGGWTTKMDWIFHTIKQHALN
UniProt P27986, whole entry partner: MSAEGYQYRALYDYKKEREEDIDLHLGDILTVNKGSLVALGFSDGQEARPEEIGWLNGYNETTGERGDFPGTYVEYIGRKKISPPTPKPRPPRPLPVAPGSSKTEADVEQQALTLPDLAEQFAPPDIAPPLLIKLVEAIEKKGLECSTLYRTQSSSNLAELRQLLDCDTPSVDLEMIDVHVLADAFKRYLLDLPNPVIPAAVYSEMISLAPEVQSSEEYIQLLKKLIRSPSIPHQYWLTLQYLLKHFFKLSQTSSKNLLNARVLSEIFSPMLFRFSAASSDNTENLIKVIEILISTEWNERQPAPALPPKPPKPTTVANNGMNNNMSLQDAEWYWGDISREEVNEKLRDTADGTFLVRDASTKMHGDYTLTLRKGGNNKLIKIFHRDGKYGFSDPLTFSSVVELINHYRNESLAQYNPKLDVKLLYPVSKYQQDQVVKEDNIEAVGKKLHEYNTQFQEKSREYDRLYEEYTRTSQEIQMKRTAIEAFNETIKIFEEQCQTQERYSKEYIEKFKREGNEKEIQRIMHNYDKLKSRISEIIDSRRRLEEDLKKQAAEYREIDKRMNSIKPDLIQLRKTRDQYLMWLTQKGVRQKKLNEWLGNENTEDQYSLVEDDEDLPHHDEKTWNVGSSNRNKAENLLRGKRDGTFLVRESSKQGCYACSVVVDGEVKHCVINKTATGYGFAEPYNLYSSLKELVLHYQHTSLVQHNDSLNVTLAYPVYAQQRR

Test system: PIK3CA-mediated AKT phosphorylation in MCF10A cells overexpressing hotspot PIK3CA mutations (including H1047R, E542K, and E545K)
Experiment: MCF10A Cell-Based PIK3CA Kinase Assay (CisBio Phospho-AKT (Ser473) HTRF assay)
Conditions: read-out: MCF10A IC50

Row | Structure (SMILES) | IC50 [nM]
1 | Nc1cc(NC(=O)c2cc(F)cc(Cl)c2)c2c(c1)C(=O)NC2c1cc(F)ccc1Cl (stereo not drawn) | < 1000
2 | O=C1NC(c2cc(F)ccc2Cl)c2c(NC(=O)N3CC(O)(C(F)(F)F)c4cc(F)ccc43)cc(-n3ccccc3=O)cc21 (stereo not drawn) | < 1000

Molecular target: H1047R PIK3CA enzyme (Homo sapiens, UniProt P42336, H1047R)
Experiment: ADP-Glo Biochemical PIK3CA Kinase Assay
Conditions: read-out: ADP-Glo IC50

Row | Structure (SMILES) | IC50 [nM]
3 | Nc1cc(NC(=O)c2cc(F)cc(Cl)c2)c2c(c1)C(=O)NC2c1cc(F)ccc1Cl (stereo not drawn) | < 100
4 | NC1(c2cc(NC(=O)c3cc(F)cc(C(F)(F)F)c3)c3c(c2)C(=O)NC3c2cc(F)ccc2Cl)CC1 (stereo not drawn) | < 100
5 | Cc1ccccc1C1NC(=O)c2cc(Br)cc(NC(=O)c3cncc(C(F)(F)F)n3)c21 (stereo not drawn) | 10000 to 100000
6 | O=C1N[C@@H](c2cc(F)ccc2Cl)c2c(NC(=O)N3C[C@@](O)(CO)c4ccccc43)cccc21 | 10000 to 100000
7 | CC(O)(CC#N)c1cc(NC(=O)c2cc(F)cc(C(F)(F)F)c2)c2c(c1)C(=O)NC2c1cc(F)ccc1Cl (single isomer, unassigned) [I-1345] | < 100
8 | CC(=O)N1CCC(Oc2cc(NC(=O)c3cc(F)cc(C(F)(F)F)c3)c3c(c2)C(=O)NC3c2cc(F)ccc2Cl)C1 (stereo not drawn) | < 100
9 | O=C1NC(c2cc(F)ccc2Cl)c2c(NC(=O)N3CC(O)(C(F)(F)F)c4cc(F)ccc43)cc(-n3ccccc3=O)cc21 (stereo not drawn) | < 100
10 | O=C1NC(c2cc(F)ccc2Cl)c2c(NC(=O)[C@H]3CCC[C@@H](C(F)(F)F)C3)cc(-c3ccc4ncnn4c3)cc21 (relative stereo) | 100 to 500
11 | CC(O)(CC#N)c1cc(NC(=O)c2cc(F)cc(C(F)(F)F)c2)c2c(c1)C(=O)NC2c1cc(F)ccc1Cl (single isomer, unassigned) [I-1344] | 500 to 1000
12 | O=C1NC(c2cc(F)ccc2Cl)c2c(NC3CCOc4ccccc43)cc(Br)cc21 (stereo not drawn) | 100 to 500
